Where a name gives a salt, the structure may show the parent alone.
Biological target: PI3Kγ (p120γ) (Homo sapiens, UniProt P48736)
Assay: biochemical

By UniProt entry, the sequences of proteins in these tests, tags left out. Where a name states a change or a piece, a line headed by the entry shows the natural chain unless it says otherwise.
UniProt P48736: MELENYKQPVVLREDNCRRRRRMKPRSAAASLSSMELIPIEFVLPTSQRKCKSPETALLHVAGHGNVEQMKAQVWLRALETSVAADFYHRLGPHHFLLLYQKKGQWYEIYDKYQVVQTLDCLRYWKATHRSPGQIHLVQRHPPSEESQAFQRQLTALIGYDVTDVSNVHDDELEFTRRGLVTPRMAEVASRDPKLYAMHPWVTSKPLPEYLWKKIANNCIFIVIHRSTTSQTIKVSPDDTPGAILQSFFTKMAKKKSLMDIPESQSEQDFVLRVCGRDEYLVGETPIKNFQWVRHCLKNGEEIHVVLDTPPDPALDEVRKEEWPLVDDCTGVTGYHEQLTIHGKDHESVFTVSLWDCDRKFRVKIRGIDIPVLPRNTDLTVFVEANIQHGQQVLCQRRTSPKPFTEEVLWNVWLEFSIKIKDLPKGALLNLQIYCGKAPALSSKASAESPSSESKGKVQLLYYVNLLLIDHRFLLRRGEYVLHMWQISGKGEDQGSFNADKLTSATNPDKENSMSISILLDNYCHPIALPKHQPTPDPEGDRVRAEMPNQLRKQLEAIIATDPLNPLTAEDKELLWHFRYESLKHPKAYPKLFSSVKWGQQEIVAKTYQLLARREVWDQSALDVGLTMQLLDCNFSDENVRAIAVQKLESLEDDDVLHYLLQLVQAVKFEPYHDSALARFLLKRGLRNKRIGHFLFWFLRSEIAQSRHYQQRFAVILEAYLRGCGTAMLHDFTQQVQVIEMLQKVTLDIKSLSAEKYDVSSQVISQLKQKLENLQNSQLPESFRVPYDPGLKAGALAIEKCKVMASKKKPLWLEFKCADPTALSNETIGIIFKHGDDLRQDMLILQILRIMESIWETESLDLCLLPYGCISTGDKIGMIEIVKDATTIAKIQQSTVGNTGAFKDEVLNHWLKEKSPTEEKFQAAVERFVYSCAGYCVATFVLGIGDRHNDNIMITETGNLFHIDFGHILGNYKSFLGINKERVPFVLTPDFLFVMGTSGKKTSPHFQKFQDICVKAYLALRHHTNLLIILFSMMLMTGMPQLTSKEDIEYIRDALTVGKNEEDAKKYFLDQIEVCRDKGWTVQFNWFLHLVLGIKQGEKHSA

SMILES	IC50 [nM]
Cc1cc(Nc2nc(N3CCOCC3)c3oc4ncccc4c3n2)[nH]n1 [Example 8, N-(3-Methyl-1H-pyrazol-5-yl)-4-morpholinopyrido[3′,2′:4,5]furo[3,2-d]pyrimidin-2-amine]	2610
c1ccc(-c2cc(Nc3nc(N4CCOCC4)c4oc5ncccc5c4n3)[nH]n2)cc1 [Example 9, 4-Morpholino-N-(3-phenyl-1H-pyrazol-5-yl)pyrido[3′,2′:4,5]furo[3,2-d]pyrimidin-2-amine]	> 10000
c1cnc2oc3c(N4CCOCC4)nc(Nc4cc(-c5ccncc5)n[nH]4)nc3c2c1 [Example 10, 4-Morpholino-N-(3-(pyridin-4-yl)-1H-pyrazol-5-yl)pyrido[3′,2′:4,5]furo[3,2-d]pyrimidin-2-amine]	582
Cc1cc(N(C)c2nc(N3CCOCC3)c3oc4ncccc4c3n2)nn1C [Example 11, N-(1,5-Dimethyl-1H-pyrazol-3-yl)-N-methyl-4-morpholinopyrido[3′,2′:4,5]furo[3,2-d]pyrimidin-2-amine]	4670
c1ccc(Nc2nc(N3CCOCC3)c3oc4ncccc4c3n2)cc1 [Example 37, 4-morpholino-N-phenylpyrido[3′,2′:4,5]furo[3,2-d]pyrimidin-2-amine]	7280
Cc1cc(Nc2nc(N3CCOCC3)c3oc4ncccc4c3n2)nn1C [Example 47, N-(1,5-dimethyl-1H-pyrazol-3-yl)-4-morpholinopyrido[3′,2′:4,5]furo[3,2-d]pyrimidin-2-amine]	1870

Now from value to compound:

IC50 [nM]	SMILES
> 10000	Cn1ccnc1Nc1nc(N2CCOCC2)c2oc3ncccc3c2n1 [Example 12, N-(1-Methyl-1H-imidazol-2-yl)-4-morpholinopyrido[3′,2′:4,5]furo[3,2-d]pyrimidin-2-amine]
1410	c1ccc(CCNc2nc(N3CCOCC3)c3oc4ncccc4c3n2)cc1 [Example 21, 4-morpholino-N-phenethylpyrido[3′,2′:4,5]furo[3,2-d]pyrimidin-2-amine]
2650	C[C@H](Nc1nc(N2CCOCC2)c2oc3ncccc3c2n1)C1CC1 [Example 36, (S)-N-(1-cyclopropylethyl)-4-morpholinopyrido[3′,2′:4,5]furo[3,2-d]pyrimidin-2-amine]
> 10000	c1cnc2oc3c(N4CCOCC4)nc(Nc4ccncc4)nc3c2c1 [Example 38, 4-morpholino-N-(pyridin-4-yl)pyrido[3′,2′:4,5]furo[3,2-d]pyrimidin-2-amine]
677	c1cncc(Nc2nc(N3CCOCC3)c3oc4ncccc4c3n2)c1 [Example 39, 4-morpholino-N-(pyridin-3-yl)pyrido[3′,2′:4,5]furo[3,2-d]pyrimidin-2-amine]
2040	c1ccc(Nc2nc(N3CCOCC3)c3oc4ncccc4c3n2)nc1 [Example 40, 4-morpholino-N-(pyridin-2-yl)pyrido[3′,2′:4,5]furo[3,2-d]pyrimidin-2-amine]
206	c1cnc2oc3c(N4CCOCC4)nc(Nc4cc(C5CCC5)n[nH]4)nc3c2c1 [Example 55, N-(3-cyclobutyl-1H-pyrazol-5-yl)-4-morpholinopyrido[3′,2′:4,5]furo[3,2-d]pyrimidin-2-amine hydrochloride]
1540	c1cnc2oc3c(N4CCOCC4)nc(Nc4cc(CC5CCC5)n[nH]4)nc3c2c1 [Example 56, N-(3-(cyclobutylmethyl)-1H-pyrazol-5-yl)-4-morpholinopyrido[3′,2′:4,5]furo[3,2-d]pyrimidin-2-amine hydrochloride]
